From patent US9422357B2, “Glycosylated polypeptide and drug composition containing said polypeptide” (priority 2011, dated 2016)
Where two headings read alike, the source gives them in different places.

Chains of the proteins cited; added tags and fusions are not shown. Lines headed by an entry give the natural chain unless they say otherwise; changes in a name come on top.
UniProt P31391: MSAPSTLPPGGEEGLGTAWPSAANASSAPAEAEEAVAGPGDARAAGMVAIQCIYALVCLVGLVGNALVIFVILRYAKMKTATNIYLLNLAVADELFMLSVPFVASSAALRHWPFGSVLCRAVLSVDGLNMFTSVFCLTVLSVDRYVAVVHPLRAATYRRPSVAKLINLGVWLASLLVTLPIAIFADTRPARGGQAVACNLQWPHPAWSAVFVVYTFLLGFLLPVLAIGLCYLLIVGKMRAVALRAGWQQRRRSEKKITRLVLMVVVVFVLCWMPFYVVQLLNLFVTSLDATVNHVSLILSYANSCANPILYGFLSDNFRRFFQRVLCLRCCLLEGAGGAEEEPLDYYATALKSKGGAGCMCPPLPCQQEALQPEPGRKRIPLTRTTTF
UniProt P35346: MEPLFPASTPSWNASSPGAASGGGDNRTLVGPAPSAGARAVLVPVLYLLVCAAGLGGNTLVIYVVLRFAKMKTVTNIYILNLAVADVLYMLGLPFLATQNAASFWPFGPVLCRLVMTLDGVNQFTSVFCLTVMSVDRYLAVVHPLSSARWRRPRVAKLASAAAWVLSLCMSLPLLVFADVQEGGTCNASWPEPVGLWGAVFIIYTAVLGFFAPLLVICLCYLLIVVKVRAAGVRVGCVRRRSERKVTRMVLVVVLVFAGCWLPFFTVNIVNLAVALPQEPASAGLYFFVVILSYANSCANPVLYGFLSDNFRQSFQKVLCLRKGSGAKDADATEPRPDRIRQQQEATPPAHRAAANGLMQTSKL
UniProt P30874: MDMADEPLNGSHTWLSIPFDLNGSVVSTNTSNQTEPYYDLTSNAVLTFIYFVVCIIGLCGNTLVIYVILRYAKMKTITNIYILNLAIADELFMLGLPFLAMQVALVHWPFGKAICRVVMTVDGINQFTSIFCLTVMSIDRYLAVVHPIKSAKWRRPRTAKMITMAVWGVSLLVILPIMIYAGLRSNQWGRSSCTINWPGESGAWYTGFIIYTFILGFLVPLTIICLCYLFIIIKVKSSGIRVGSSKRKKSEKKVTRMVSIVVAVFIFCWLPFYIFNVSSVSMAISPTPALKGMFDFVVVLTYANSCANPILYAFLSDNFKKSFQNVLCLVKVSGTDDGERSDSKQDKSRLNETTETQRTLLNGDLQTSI
UniProt P30872, whole entry, species assumed: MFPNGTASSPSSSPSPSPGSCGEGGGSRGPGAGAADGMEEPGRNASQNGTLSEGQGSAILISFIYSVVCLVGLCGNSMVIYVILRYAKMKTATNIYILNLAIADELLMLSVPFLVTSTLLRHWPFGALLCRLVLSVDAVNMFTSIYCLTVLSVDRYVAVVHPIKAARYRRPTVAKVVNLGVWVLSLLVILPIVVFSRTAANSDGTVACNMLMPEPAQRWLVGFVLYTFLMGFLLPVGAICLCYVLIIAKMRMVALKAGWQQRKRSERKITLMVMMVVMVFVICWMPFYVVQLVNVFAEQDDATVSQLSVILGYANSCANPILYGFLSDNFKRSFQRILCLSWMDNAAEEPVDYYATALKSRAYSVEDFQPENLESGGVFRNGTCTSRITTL
UniProt P32745: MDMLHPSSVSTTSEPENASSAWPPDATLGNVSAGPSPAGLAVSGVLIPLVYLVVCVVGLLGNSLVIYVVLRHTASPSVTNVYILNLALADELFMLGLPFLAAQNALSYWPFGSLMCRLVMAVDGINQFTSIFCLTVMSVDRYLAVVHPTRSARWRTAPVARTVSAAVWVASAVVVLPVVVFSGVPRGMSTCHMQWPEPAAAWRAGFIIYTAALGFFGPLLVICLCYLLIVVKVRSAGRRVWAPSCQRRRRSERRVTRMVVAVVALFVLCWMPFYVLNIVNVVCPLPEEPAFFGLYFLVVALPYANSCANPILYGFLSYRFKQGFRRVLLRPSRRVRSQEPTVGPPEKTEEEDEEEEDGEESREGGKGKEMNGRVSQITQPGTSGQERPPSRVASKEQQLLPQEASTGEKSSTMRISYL

Key:
SSTR4 = SSTR4 (Homo sapiens, UniProt P31391); assay: Competitive binding assay, SSTR4; conditions: for Ki: Example 67-2 (text on Table 3B), read-out: Ki value against SSTR4
SSTR5 = SSTR5 (Homo sapiens, UniProt P35346); assay: Competitive binding assay, SSTR5; conditions: for Ki: read-out: Ki value against SSTR5, Example 67-2 (text on Table 3B)
SSTR2 = SSTR2 (Homo sapiens, UniProt P30874); assay: Competitive binding assay, SSTR2
[1] = Pharmacokinetics test with rats (intravenous and subcutaneous administration); conditions: rat; for extension of t1/2 compared to the non-glycosylated form / increase of AUC compared to the non-glycosylated form: administered intravenously, versus SRIF28 or SRIF14
SSTR1 [2] = biological target: T1, SSTR1 (Homo sapiens, UniProt P30872); assay: Competitive binding assay, SSTR1
SSTR3 = SSTR3 (Homo sapiens, UniProt P32745); assay: Competitive binding assay, SSTR3; conditions: for Ki: read-out: Ki value against SSTR3, Example 67-2 (text on Table 3B)
SSTR1 [3] = biological target: T1, SSTR1; assay: cAMP production suppression (agonist activity), SSTR1 receptor expression cells; type: cell-based; conditions: read-out: IC50 of the agonist activity, SSTR1; Table 3E, Example 67-4
[4] = read-out: Ki value against SSTR2, Example 67-2 (text on Table 3B)
[5] = read-out: Ki value against SSTR1, Example 67-2 (text on Table 3B)
[6] = Tables 5B-5F, intravenous, no unit printed in these tables (Table 5A footnote: nM)
[7] = Tables 5B-5F, intravenous, no unit printed in these tables (Table 5A footnote: min)
[8] = Tables 5B-5F, subcutaneous, no unit printed in these tables (Table 5A footnote: min)

| Substance | Ki (SSTR4) [nM] | Ki (SSTR5) [nM] | Ki (SSTR2; [4]) [nM] | extension of t1/2 compared to the non-glycosylated form [1] | increase of AUC compared to the non-glycosylated form [1] | Ki (SSTR1 [2]; [5]) [nM] | Ki (SSTR3) [nM] | other results |
| --- | --- | --- | --- | --- | --- | --- | --- | --- |
| S1C(disialo(amide))-SRIF28 [Example 58] | 1.39 to 59 | 0.31 to 95 | 0.0536 to 6.51 | 11-14 folds | 7-12 folds | 1.46 to 100 | 0.16 to 7.44 |  |
| S1-2C(disialo(Bn))-SRIF28 [Example 62] | 1.39 to 59 | 0.31 to 95 | 0.0536 to 6.51 | 6-21 folds | 6-12 folds | 1.46 to 100 | 0.16 to 7.44 |  |
| S1-2C(disialo(amide))-SRIF28 [Example 61] | 1.39 to 59 | 0.31 to 95 | 0.0536 to 6.51 | 6-21 folds | 6-12 folds | 1.46 to 100 | 0.16 to 7.44 |  |
| Biotin-S1C(disialo)-SRIF28 [Example 44] |  |  |  |  |  |  |  | Ki (SSTR1 [2]; read-out: SSTR1 Ki, Table 3B, Example 67-2): 3.05 nM |
| C(disialo)-K-SRIF14 [Example 40] | 1.39 to 59 | 0.31 to 95 | 0.0536 to 6.51 | 33-38 folds | 44-55 folds | 1.46 to 100 | 0.16 to 7.44 |  |
| C(disialo)-C12 linker-SRIF14 [Example 19] |  |  |  | 22-33 folds | 14-30 folds |  |  |  |
| S1C(disialo(Bn))-SRIF28 [Example 59] | 1.39 to 59 | 0.31 to 95 | 0.0536 to 6.51 | 11-14 folds | 7-12 folds | 1.46 to 100 | 0.16 to 7.44 |  |
| T26C(disialo)-SRIF28 [Example 12] |  |  |  |  |  |  |  | Ki value against SSTR5 as folds that of SRIF14 (SSTR5; Example 67-2): 280-1600 folds; Ki value against SSTR2 as folds that of SRIF14 (SSTR2; Example 67-2): 280-1600 folds |
| C(disialo)-PEG linker-SRIF14 [Example 43] |  |  |  | 22-33 folds | 14-30 folds |  |  |  |
| S1-3C(asialo)-SRIF28 [Example 29] |  |  |  | 5 folds | 6 folds |  |  |  |
| F25C(disialo)-SRIF28 [Example 38] |  |  |  |  |  |  |  | Ki value against SSTR2 as folds that of SRIF14 (SSTR2; Example 67-2): 310-5300 folds; Ki value against SSTR1 as folds that of SRIF14 (SSTR1 [2]; Example 67-2): 310-5300 folds; Ki value against SSTR3 as folds that of SRIF14 (SSTR3; Example 67-2): 310-5300 folds |
| S1C(diGlcNAc)-SRIF28 [Example 50] | 1.39 to 59 | 0.31 to 95 | 0.0536 to 6.51 |  |  | 1.46 to 100 | 0.16 to 7.44 |  |
| 3C(disialo)-R-K-SRIF14 [Example 49] |  |  |  | 71 folds | 36 folds |  |  | Ki value against SSTR4 as folds that of SRIF14 (SSTR4; Example 67-2): ≥ 46 folds |
| 2C(disialo)-R-K-SRIF14 [Example 48] | 1.39 to 59 | 0.31 to 95 | 0.0536 to 6.51 | 63 folds | 42 folds | 1.46 to 100 | 0.16 to 7.44 |  |
| S1C(disialo(aminoethylamide))-SRIF28 [Example 57] | 1.39 to 59 | 0.31 to 95 | 0.0536 to 6.51 | 11-14 folds | 7-12 folds | 1.46 to 100 | 0.16 to 7.44 | Ki (SSTR2; read-out: SSTR2 Ki, Table 3B, Example 67-2): 0.536 nM |
| S1C(diMan)-SRIF28 [Example 51] | 1.39 to 59 | 0.31 to 95 | 0.0536 to 6.51 |  |  | 1.46 to 100 | 0.16 to 7.44 |  |
| C(disialo(aminoethylamide))/S1C(disialo)-SRIF28 [Example 65] |  |  |  | 6-21 folds | 6-12 folds |  |  | C0, intravenous administration [1, 6]: 518 |
| S1-4C(disialo)-SRIF28 [Example 66] | 1.39 to 59 | 0.31 to 95 | 0.0536 to 6.51 | 48 folds | 15 folds | 1.46 to 100 | 0.16 to 7.44 |  |
| S1C(tetrasialo)-SRIF28 [Example 56] |  |  |  |  |  |  |  | AUC, intravenous administration ([1]; Tables 5B-5F, intravenous, no unit printed in these tables (Table 5A footnote: min · nM)): 4851; MRT, intravenous administration [1, 7]: 23.0; T1/2, intravenous administration [1, 7]: 20.9; C0, intravenous administration [1, 6]: 471; BA, subcutaneous administration ([1]; Tables 5B-5F, subcutaneous, no unit printed in these tables (Table 5A footnote: %)): 54; AUC, subcutaneous administration ([1]; Tables 5B-5F, subcutaneous, no unit printed in these tables (Table 5A footnote: min · nM)): 2624; MRT, subcutaneous administration [1, 8]: 59.4; T1/2, subcutaneous administration [1, 8]: 40.5; Cmax, subcutaneous administration ([1]; Tables 5B-5F, subcutaneous, no unit printed in these tables (Table 5A footnote: nM)): 32.2 |
| S1C(GlcNAc)-SRIF28 [Example 53] | 1.39 to 59 | 0.31 to 95 | 0.0536 to 6.51 |  |  | 1.46 to 100 | 0.16 to 7.44 |  |
| S1C(asialo)-SRIF28 [Example 27] | 1.39 to 59 | 0.31 to 95 | 0.0536 to 6.51 | 10 folds | 10 folds | 1.46 to 100 | 0.16 to 7.44 |  |
| S1C(Asn(disialo))-SRIF28 [Example 63] |  |  |  |  |  |  |  | IC50 (SSTR1 [3]): 2 nM |
